Test results from US20160318844A1, “PROSTACYCLIN COMPOUNDS, COMPOSITIONS AND METHODS OF USE THEREOF” (Insmed Incorporated, priority 2015, published 2016).

Columns and labels:
[1] = Particle size characterization of treprostinil compositions (QELS); type: physicochemical; settings: composition of Table 3 (squalane, Chol-PEG2k)
[2] = Treprostinil alkyl ester conversion to treprostinil in rat lung tissue homogenate; type: in vitro ADME; settings: 37° C., 200 nM, 10 mg/mL of protein
Procedure: (§1) Treprostinil alkyl ester (C10-TR, C12-TR, C14-TR) conversion to treprostinil was also measured in the presence of rat, dog and monkey lung tissue homogenate at 37° C. Here, data were calculated based on fit of exponential increase to the maximum (experiments performed in duplicate). The results of this study are provided below in Table 2A and FIG. 37. […] In this experiment, treprostinil alkyl esters were incubated for 4 hours at a final concentration of 200 nM in 1 mL of tissue homogenate prepared in water and normalized to 10 mg/mL of protein.
(§2) C12-TR was incubated for 4 hours at a final concentration of 200 nM in 1 mL of tissue homogenate prepared in water and normalized to 10 mg/mL of protein. Both FIG. 37 experiments (eft and right graphs) were performed in duplicate and the lines represent nonlinear exponential regression assuming 1 phase decay. Table 2A. Rate of treprostinil alkyl ester conversion in the presence of rat, dog or monkey lung tissue homogenate.

[3] = Treprostinil alkyl ester conversion to treprostinil in dog lung tissue homogenate; type: in vitro ADME; settings: 37° C.
Procedure: as §1, §2

[4] = Treprostinil alkyl ester conversion to treprostinil in monkey lung tissue homogenate; type: in vitro ADME; settings: 37° C.
Procedure: as §1, §2

| Substance | average particle diameter [1] [nm] | Rate of treprostinil alkyl ester conversion [2] | Rate of treprostinil alkyl ester conversion [3] | Rate of treprostinil alkyl ester conversion [4] |
| --- | --- | --- | --- | --- |
| treprostinil pentyl ester [Compound C5-TR] | 316 | – | – | – |
| treprostinil decyl ester [Compound C10-TR] | – | 7.3 nmOL/h * g of protein | 10.5 nmOL/h * g of protein | 4.6 nmOL/h * g of protein |
